Paper PMC4097020 (Psychopharmacology, 2014)

Chains of the proteins cited; added tags and fusions are not shown.
UniProt P35462, whole entry: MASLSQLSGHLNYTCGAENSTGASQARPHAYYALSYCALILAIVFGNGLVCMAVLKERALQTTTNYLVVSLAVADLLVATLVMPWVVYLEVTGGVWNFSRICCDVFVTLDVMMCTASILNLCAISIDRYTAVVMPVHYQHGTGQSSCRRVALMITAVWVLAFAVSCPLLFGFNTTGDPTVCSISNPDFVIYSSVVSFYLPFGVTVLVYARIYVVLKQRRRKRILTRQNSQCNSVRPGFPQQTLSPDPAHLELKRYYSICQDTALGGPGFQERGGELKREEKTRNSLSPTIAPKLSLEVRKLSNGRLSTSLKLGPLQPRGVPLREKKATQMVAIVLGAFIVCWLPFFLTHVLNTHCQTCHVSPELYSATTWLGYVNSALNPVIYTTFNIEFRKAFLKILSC

Molecular target: recombinant human D3 receptor (Homo sapiens, UniProt P35462)
Assay: [3H]YM 09151-2 binding to CHOp-D3 cells

`CN1CCc2cc(Cl)c(O)cc2C(c2ccccc2)C1` (stereo not shown) [SCH23390, 7-chloro-3-methyl-1-phenyl-1,2,4,5-tetrahydro-3-benzazepin-8-ol] showed a Ki of 1920 ± 580 nM.
